This is an account of results in PMC6719321 (Clinical Pharmacokinetics, 2019).

Each structure is given as a SMILES string.

This data set can be described thus: Trial 1. As to conditions: warfarin 25 mg single dose alone, N = 50; median (minimum, maximum).

`CC(=O)C[C@@H](c1ccccc1)c1c(O)c2ccccc2oc1=O` [S-warfarin] yielded a tmax of 1.0 h.
